Earlier results in US6887897B2, “Calcium glutarate supplement and phosphorus binder” (Mission Pharmacal Company, priority 2001, dated 2005).

Conditions: cited from earlier work

Substance: Calcium gluconate
- solubility (in words): high solubilities
